Tested on: FcγRI, FcγRIIa/CD32, FcγRIIIa/CD16
Assay: Lumit FcγR Binding Immunoassays
Parameters: species or system human
Conditions: competition with Tracer-LgBiT, n=1

**Q.** How did the “Interaction with FcγR” value turn out when “trastuzumab: positive control in FcγR binding immunoassays [reference compound]” was run?
**A.** reduced interaction with all FcγR compared to the positive control
